The target of this assay is Signal transducer and activator of transcription 3 (Mus musculus, UniProt P42227). In words: Electrophoretic Mobility Shift Assay (EMSA). To be noted: pH 7.8; 22 °C. As to the method: His10-Stat3 was expressed in Sf9 cells from a baculovirus encoding the recombinant protein. A nuclear extract of the Sf9 cells was incubated with 32P-labeled high affinity c-fos sis inducible element (hSIE) either alone or in the presence of inhibitor. After 20 min of incubation, samples were electrophoresed on polyacrylamide gels. The gels were dried, exposed to a phosphorimager screen and scanned. IC50 values were derived from plots of spot intensity versus phosphopeptide concentration. The affinity of peptides to the SH2 domain is measured by the intensity of the radioactivity of the Stat3-DNA complex band in the electrophoresis gel.
In general terms: A gel shift assay detects complexes by their altered migration in electrophoresis.

By UniProt entry, the sequences of proteins in these tests, tags left out.
UniProt P42227, whole entry: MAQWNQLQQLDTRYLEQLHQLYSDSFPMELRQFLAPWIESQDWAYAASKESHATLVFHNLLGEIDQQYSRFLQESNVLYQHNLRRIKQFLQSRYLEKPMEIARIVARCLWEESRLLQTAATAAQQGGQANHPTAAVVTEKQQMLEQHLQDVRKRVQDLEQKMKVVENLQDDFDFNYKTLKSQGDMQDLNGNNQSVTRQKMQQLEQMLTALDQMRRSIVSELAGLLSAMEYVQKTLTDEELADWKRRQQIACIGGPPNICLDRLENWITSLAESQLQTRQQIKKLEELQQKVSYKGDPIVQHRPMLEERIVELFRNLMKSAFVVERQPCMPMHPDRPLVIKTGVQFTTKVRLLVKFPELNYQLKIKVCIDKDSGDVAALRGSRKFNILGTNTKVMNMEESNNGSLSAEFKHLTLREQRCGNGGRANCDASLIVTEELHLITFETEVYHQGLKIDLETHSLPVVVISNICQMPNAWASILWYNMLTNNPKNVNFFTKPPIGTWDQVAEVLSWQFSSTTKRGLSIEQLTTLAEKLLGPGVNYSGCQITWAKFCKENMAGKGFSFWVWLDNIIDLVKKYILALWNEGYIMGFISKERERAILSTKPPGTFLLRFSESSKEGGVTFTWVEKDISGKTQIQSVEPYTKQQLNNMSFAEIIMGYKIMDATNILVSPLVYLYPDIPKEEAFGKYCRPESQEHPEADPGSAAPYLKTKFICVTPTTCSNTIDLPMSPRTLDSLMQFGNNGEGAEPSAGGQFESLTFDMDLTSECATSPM

For `CC(=O)N[C@@H](Cc1ccc(OP(=O)(O)O)cc1)C(=O)N[C@@H](Cc1cnc[nH]1)C(=O)N[C@@H](CC(N)=O)C(=O)N[C@@H](CCC(N)=O)C(=O)N1CCC[C@H]1C(=O)N[C@@H](CC(C)C)C(N)=O` [4-[(2S)-2-{[(1S)-1-{[(1S)-2-carbamoyl-1-{[(2S)-4-carbamoyl-1-[(2S)-2-{[(1S)-1-carbamoyl-3-methylbutyl]carbamoyl}pyrrolidin-1-yl]-1-oxobutan-2-yl]carbamoyl}ethyl]carbamoyl}-2-(1H-imidazol-4-yl)ethyl]carbamoyl}-2-acetamidoethyl]phenoxyphosphonic acid], the IC50 amounted to 150 µM.

Broadly, the IC50 is the point on the concentration scale where inhibition reaches its midpoint.

The record behind these values is BindingDB's records for doi:10.1016/S0960-894X(02)01050-8 (The University of Texas At Houston, 2003).
